Reference: US20050038070A1, “Asthma and allergic inflammation modulators” (AMGEN INC., priority 2003, published 2005)

Protein sequences, listed by entry. Tags and fused reporters are not part of them.
UniProt Q9Y5Y4, whole entry: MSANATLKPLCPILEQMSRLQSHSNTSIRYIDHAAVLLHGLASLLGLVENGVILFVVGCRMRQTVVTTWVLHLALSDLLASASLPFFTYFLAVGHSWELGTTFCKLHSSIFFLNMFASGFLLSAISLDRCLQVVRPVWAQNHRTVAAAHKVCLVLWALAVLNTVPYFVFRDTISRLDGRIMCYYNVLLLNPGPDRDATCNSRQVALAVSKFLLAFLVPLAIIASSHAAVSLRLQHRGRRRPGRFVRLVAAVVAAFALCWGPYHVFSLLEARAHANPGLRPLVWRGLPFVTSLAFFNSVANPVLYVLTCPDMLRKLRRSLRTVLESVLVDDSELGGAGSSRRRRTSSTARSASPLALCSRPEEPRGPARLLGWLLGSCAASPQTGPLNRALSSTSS

molecular target: human CRTH2 (Homo sapiens, UniProt Q9Y5Y4); assay: Human CRTH2 binding assay (3H-PGD2 binding, 293(124) cells); details: 3H-PGD2 binding to 293(124) cells stably expressing human CRTH2

Compound | IC50
CC(=O)N(c1ccccc1)C1CC(C)N(C(=O)c2ccc([N+](=O)[O-])cc2)c2ccccc21 (stereo not drawn) | > 40 nM
CCN(CC)c1ccc(C(=O)N2c3ccccc3C(N(C(C)=O)c3ccccc3)CC2C)cc1 (stereo not drawn) | < 40 nM
CC1CC(N(C(=O)CCCC(=O)O)c2ccccc2)c2ccccc2N1C(=O)c1ccccc1 (stereo not drawn) | < 40 nM
